Experiment [1] has as its target Kappa-type opioid receptor (Homo sapiens) (UniProt P41145). In words: Agonist activity at human kappa opioid receptor expressed in CHO cells incubated for 1 hr by [35S]GTPgammaS binding based liquid scintillation counting method relative to control.
The target of experiment [2] is Mu-type opioid receptor (Rattus norvegicus) (UniProt P33535). The experiment in a line: Agonist activity at rat mu opioid receptor expressed in CHO cells incubated for 1 hr by [35S]GTPgammaS binding based liquid scintillation counting method relative to control.
In experiment [3] the target is Delta-type opioid receptor (Rattus norvegicus) (UniProt P33533). The experiment in a line: Agonist activity at rat delta opioid receptor expressed in CHO cells incubated for 1 hr by [35S]GTPgammaS binding based liquid scintillation counting method relative to control.
Experiment [4] addresses Kappa-type opioid receptor (Homo sapiens) (UniProt P41145). The experiment in a line: Displacement of [3H]-U69593 from human kappa opioid receptor expressed in CHO cells at 1 uM incubated for 30 mins by liquid scintillation counting method relative to control.
Experiment [5] deals with Delta-type opioid receptor (Rattus norvegicus) (UniProt P33533). The experiment in a line: Displacement of [3H]-DPDPE from rat delta opioid receptor expressed in CHO cells at 1 uM incubated for 30 mins by liquid scintillation counting method relative to control.
Experiment [6] concerns the target Mu-type opioid receptor (Rattus norvegicus) (UniProt P33535). In words: Displacement of [3H]-DAMGO from rat mu opioid receptor expressed in CHO cells at 1 uM incubated for 30 mins by liquid scintillation counting method relative to control.
Experiment [7] has as its system Mus musculus. The experiment in a line: Antinociceptive activity in Kunming mouse assessed as maximum possible effect by measuring latency threshold at 5 mg/kg, ip by hot plate test.
Experiment [8] has as its system Mus musculus. In words: Antinociceptive activity in Kunming mouse assessed as maximum possible effect by measuring latency threshold at 5 mg/kg, ip in presence of naloxone by hot plate test.
In experiment [9] the test system is Mus musculus. In words: Antinociceptive activity in ip dosed Kunming mouse assessed as maximum possible effect by measuring latency threshold by hot plate test.
A short description of experiment [10]: Selectivity index, ratio of Ki for human kappa opioid receptor expressed in CHO cells to rat mu opioid receptor expressed in CHO cells.
For experiment [11], the species on record is Rattus norvegicus. The experiment in a line: Selectivity index, ratio of Ki for rat delta opioid receptor expressed in CHO cells to rat mu opioid receptor expressed in CHO cells.

By UniProt entry, the sequences of proteins in these tests, tags left out. Where a name states a change or a piece, a line headed by the entry shows the natural chain unless it says otherwise.
UniProt P41145: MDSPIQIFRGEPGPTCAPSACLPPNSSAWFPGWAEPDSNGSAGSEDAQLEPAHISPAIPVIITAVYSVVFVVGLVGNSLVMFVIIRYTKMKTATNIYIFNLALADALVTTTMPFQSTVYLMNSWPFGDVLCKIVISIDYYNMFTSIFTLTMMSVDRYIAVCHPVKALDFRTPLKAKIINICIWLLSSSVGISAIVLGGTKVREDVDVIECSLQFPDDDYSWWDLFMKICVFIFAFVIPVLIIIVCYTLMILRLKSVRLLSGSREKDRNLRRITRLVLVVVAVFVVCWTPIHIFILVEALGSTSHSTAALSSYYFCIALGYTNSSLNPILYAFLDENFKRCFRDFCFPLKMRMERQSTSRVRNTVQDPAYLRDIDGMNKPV
UniProt P33535, whole entry, looked up: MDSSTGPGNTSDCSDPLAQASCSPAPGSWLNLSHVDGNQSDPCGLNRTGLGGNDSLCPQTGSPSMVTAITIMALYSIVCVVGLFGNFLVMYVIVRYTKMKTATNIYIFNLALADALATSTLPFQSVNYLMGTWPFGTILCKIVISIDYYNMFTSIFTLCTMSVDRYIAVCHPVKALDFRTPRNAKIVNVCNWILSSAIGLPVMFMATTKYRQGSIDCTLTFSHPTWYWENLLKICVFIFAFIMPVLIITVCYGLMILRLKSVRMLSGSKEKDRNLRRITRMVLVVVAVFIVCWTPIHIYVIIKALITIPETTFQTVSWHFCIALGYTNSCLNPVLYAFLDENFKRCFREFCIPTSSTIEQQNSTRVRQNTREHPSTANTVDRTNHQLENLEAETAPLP
UniProt P33533, whole entry, looked up: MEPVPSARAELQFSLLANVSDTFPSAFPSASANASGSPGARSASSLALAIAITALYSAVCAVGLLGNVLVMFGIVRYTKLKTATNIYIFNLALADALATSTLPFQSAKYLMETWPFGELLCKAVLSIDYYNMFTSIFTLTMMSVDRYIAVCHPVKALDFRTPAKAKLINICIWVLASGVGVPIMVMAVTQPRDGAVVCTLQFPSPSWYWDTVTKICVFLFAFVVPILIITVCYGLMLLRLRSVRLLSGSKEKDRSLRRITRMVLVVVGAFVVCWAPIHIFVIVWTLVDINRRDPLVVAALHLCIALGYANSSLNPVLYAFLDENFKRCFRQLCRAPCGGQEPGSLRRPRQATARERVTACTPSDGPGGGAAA

Active and inactive are the calls of the source.

`CN(C)C[C@H]1CCCC[C@]1(O)c1cccc(O)c1`: the Emax entry in experiment [1] and in experiment [3] was “inactive” in each case. The Emax in experiment [2] (filed as agonist) was 226%. Further, the inhibition in [4] was 20.2%; in [5], 19%.
`CN(C(=O)Cc1ccc(Cl)c(Cl)c1)C1CCCCC1N1CCCC1` (stereo not given) had an Emax in experiment [1] (filed as agonist) of 200%. Also, the Emax result in experiment [2] and in experiment [3] was “inactive” in each case.
On to `CC1(C)SSC(C)(C)[C@@H](NC(=O)[C@@H](N)Cc2ccc(O)cc2)C(=O)NCC(=O)N[C@@H](Cc2ccccc2)C(=O)N[C@H]1C(=O)O`, for which the Emax entry in experiment [1] is “inactive”.
Regarding `CN(C)CC1CN(C(=O)Nc2cc(C(F)(F)F)cc(C(F)(F)F)c2)CCC1(O)c1ccccc1` (stereo not given), the inhibition in [4] came out at 8.6%; in experiment [5], 0.9%; in experiment [6], 0%.
Turning to `CN(C)CC1CN(C(=O)Nc2ccccc2)CCC1(O)c1ccccc1` (stereo not given), the outcome in experiment [7] was Active. For the same compound, in experiment [8], the outcome was inactive. Moreover, in experiment [9], the Activity entry was “Dose-dependent effect”.
Regarding `CN(C)CC1CN(C(=O)Nc2ccc(Cl)c(Cl)c2)CCC1(O)c1ccccc1` (stereo not given), the inhibition turned out to be 18.2% in experiment [4], 0% in experiment [5] and 46% in [6].
As to `CN(C)CC1CN(C(=O)Nc2ccc(F)c(Cl)c2)CCC1(O)c1ccccc1` (stereo not given), the inhibition in experiment [4] amounted to 7.1%; in experiment [5], 21.6%; in experiment [6] it was 25%.
Taken in the same sequence, the figures for `CN(C)CC1CN(C(=O)Nc2ccc3ccccc3c2)CCC1(O)c1ccccc1` (stereo not given) were 3.9%, 0% and 0.5%.
Taken in the same sequence, the figures for `CN(C)CC1CN(C(=O)N(C)c2cccc(Cl)c2)CCC1(O)c1ccccc1` (stereo not given) were 14%, 0% and 8.7%.
With `COc1cccc([C@@]2(O)CCCC[C@@H]2CN(C)C)c1`, the values for the inhibition in [4], in experiment [5] and in experiment [6] were 0%, 0% and 6%, respectively.
Take `C[C@@H](NC(=O)[C@@H](N)Cc1ccc(O)cc1)C(=O)NCC(=O)N(C)[C@@H](Cc1ccccc1)C(=O)NCCO`: the Emax entry in experiment [1] and in [3] was “inactive” throughout.
Consider `CN(C)CC1CN(C(=O)Nc2ccc(Cl)cc2)CCC1(O)c1ccccc1` (stereo not given), for which the inhibition in experiment [4] was determined as 22.1%; in experiment [5] it was 0%; in [6], 48.8%.
Turning to `CN(C)CC1CN(C(=O)Nc2ccccc2)CCC1(O)c1cccc(O)c1` (stereo not given), the results for the Emax in experiment [1] (filed as agonist), in experiment [2] (filed as agonist) and in experiment [3] (filed as agonist) were 197%, 240% and 254%, respectively. The Ratio Ki is 59.5 in experiment [10] and 86.3 in experiment [11].
In the case of `CN(C)CC1CN(C(=O)NCc2ccccc2)CCC1(O)c1ccccc1` (stereo not given), the inhibition in experiment [4] was 5.1%; in [5], 2.6%; in experiment [6] it was 35.1%.
Taken in the same sequence, the figures for `C[C@H](NC(=O)N1CCC(O)(c2ccccc2)C(CN(C)C)C1)c1ccccc1` (stereo not given in full) were 4.1%, 0% and 20.5%.
As to `COC(=O)c1sccc1NC(=O)N1CCC(O)(c2ccccc2)C(CN(C)C)C1` (stereo not given), the inhibition worked out at 0% in experiment [4], 0% in experiment [5] and 10.2% in experiment [6].
`CN(C)CC1CN(C(=O)NC23CC4CC(CC(O)(C4)C2)C3)CCC1(O)c1ccccc1` (stereo not given): the inhibition in [4] worked out at 0%; in experiment [5], 1.9%; in [6], 0%.
As for `CC(NC(=O)N1CCC(O)(c2ccccc2)C(CN(C)C)C1)C12CC3CC(CC(C3)C1)C2` (stereo not given), the values for the inhibition in experiment [4], in experiment [5] and in [6] were 10.4%, 0% and 32.8%, respectively.
The matching figures for `CN(C)CC1CN(C(=O)Nc2cccc(F)c2)CCC1(O)c1ccccc1` (stereo not given): 0%, 9.2% and 36.7%.
Taken in the same sequence, the figures for `CN(C)CC1CN(C(=O)Nc2ccc(F)c(F)c2)CCC1(O)c1ccccc1` (stereo not given) were 0%, 16.4% and 13.6%.
Regarding `CN(C)CC1CN(C(=O)NC23CC4CC(CC(C4)C2)C3)CCC1(O)c1ccccc1` (stereo not given), the inhibition in [4] was 17.9%; in experiment [5] it was 0%; in experiment [6], 13.5%.
Taken in the same sequence, the figures for `CN(C)CC1CN(C(=O)Nc2cc(Cl)c(Cl)c(Cl)c2)CCC1(O)c1ccccc1` (stereo not given) were 0%, 0% and 13.2%.
Taken in the same sequence, the figures for `COC(=O)c1ccsc1NC(=O)N1CCC(O)(c2ccccc2)C(CN(C)C)C1` (stereo not given) were 9.2%, 16% and 2.3%.

The values are drawn from ChEMBL document CHEMBL4680180, “Discovery of 3-((dimethylamino)methyl)-4-hydroxy-4-(3-methoxyphenyl)-N-phenylpiperidine-1-carboxamide as novel potent analgesic” (2020).
